Amino acid sequences for entries named in this document (tags omitted). A change or cut given only in a name is not applied to a line headed by its entry.
UniProt P21554: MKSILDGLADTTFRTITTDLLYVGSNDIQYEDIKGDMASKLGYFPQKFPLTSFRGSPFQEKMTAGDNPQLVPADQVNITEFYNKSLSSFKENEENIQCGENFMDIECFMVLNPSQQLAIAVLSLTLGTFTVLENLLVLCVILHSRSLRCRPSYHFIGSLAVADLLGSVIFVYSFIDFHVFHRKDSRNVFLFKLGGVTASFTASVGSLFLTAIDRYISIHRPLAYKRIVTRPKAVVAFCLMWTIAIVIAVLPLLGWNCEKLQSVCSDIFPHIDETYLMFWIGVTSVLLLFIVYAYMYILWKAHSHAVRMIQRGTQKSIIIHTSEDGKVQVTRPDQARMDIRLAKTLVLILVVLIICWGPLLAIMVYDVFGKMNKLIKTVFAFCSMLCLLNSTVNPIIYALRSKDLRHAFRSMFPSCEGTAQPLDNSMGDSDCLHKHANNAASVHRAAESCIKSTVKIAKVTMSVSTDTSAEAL

In paper PMC5433929, “High-resolution crystal structure of the human CB1 cannabinoid receptor” (Nature, 2016):

Target: CB1^T210A-PGS (Homo sapiens, UniProt P21554, DEL304-332/H302F/INS301[…]/T210A)
Settings: competition binding

- binding of engineered construct compared with wild-type CB1: nearly identically to wild-type CB1
SMILES: C[C@H](NC(=O)C(C)(C)Oc1ccc(C(F)(F)F)cn1)[C@@H](Cc1ccc(Cl)cc1)c1cccc(C#N)c1 [taranabant, N-[(1S,2S)-3-(4-chlorophenyl)-2-(3-cyanophenyl)-1-methylpropyl]-2-methyl-2-{[5-(trifluoromethyl)pyridin-2-yl]oxy}propanamide]
